Membrane permeability of cyclic peptides

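The data file gives no further conditions (lipid, pH, time, direction or concentration), and values from different papers need not be comparable. Other peptides of the study may be missing here. Peptides that the database sets to -10, its floor, are left out.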

PAMPA is the parallel artificial membrane permeability assay, which has no cells and reads passive diffusion.
P is given in units of 10^-6 cm/s (from log10 values with two decimals); larger means faster passage.

CC(C)C[C@H]1NC(=O)CN(Cc2ccccc2)C(=O)[C@H](C)N(C)C(=O)[C@H]2CCCN2C(=O)[C@H](Cc2ccccc2)NC(=O)[C@H](CC(C)C)N(C)C(=O)[C@H]2CCCN2C1=O has PAMPA 5.5 × 10^-6 cm/s.
CC(C)C[C@@H]1NC(=O)[C@H](C)NC(=O)[C@H](Cc2ccccc2)NC(=O)[C@@H](CC(C)C)NC(=O)[C@H]2CCCN2C(=O)CN(Cc2ccccc2)C1=O has PAMPA 0.2 × 10^-6 cm/s.
CC(C)C[C@H]1NC(=O)C[C@H](Cc2ccccc2)NC(=O)[C@@H]2CCCN2C(=O)[C@H](Cc2ccccc2)NC(=O)[C@H](CC(C)C)N(C)C(=O)[C@H]2CCCN2C(=O)C[C@H](Cc2ccccc2)NC1=O has PAMPA 1.9 × 10^-6 cm/s.
CC(C)C[C@H]1C(=O)N(C)[C@@H](CC(C)C)C(=O)N2CCC[C@H]2C(=O)N(C)[C@@H](CC(C)C)C(=O)N[C@@H](Cc2ccccc2)C(=O)N2CCC[C@@H]2C(=O)N(C)[C@@H](C)C(=O)N1C has PAMPA 13 × 10^-6 cm/s.
CC(C)C[C@H]1NC(=O)[C@@H](C)N(C)C(=O)[C@H](Cc2ccccc2)NC(=O)[C@H](CC(C)C)N(C)C(=O)[C@H]2CCCN2C(=O)CN(Cc2ccccc2)C1=O has PAMPA 6.2 × 10^-6 cm/s.
CCCN1CC(=O)N(C)[C@@H](CC(C)C)C(=O)N[C@H](CC(C)C)C(=O)N2CCC[C@H]2C(=O)N(C)[C@H](CC(C)C)C(=O)N[C@@H](Cc2ccccc2)C1=O has PAMPA 15 × 10^-6 cm/s.
CC(C)C[C@@H]1NC(=O)C[C@H](Cc2ccccc2)NC(=O)[C@H](Cc2ccccc2)NC(=O)[C@H](CC(C)C)NC(=O)[C@H]2CCCN2C(=O)[C@@H](CC(C)C)NC1=O has PAMPA 1.7 × 10^-6 cm/s.
CC(C)C[C@@H]1NC(=O)[C@H]2CCCN2C(=O)[C@H](CC(C)C)NC(=O)CN(Cc2ccccc2)C(=O)[C@H](C)N(C)C(=O)[C@H](Cc2ccccc2)NC1=O has PAMPA 6 × 10^-6 cm/s.
CC(C)C[C@@H]1C(=O)N[C@@H](Cc2ccccc2)CC(=O)N2CCC[C@@H]2C(=O)N[C@H](CC(C)C)C(=O)N[C@@H](Cc2ccccc2)C(=O)N2CCC[C@H]2C(=O)N(C)[C@H](C)C(=O)N1C has PAMPA 0.91 × 10^-6 cm/s.
CC(C)C[C@@H]1NC(=O)[C@@H]2CCCN2C(=O)[C@@H](CC(C)C)N(C)C(=O)[C@H](CC(C)C)N(C)C(=O)[C@@H](C)N(C)C(=O)[C@@H]2CCCN2C(=O)[C@H](Cc2ccccc2)NC1=O has PAMPA 1.3 × 10^-6 cm/s.
CC(C)C[C@@H]1NC(=O)C[C@H](Cc2ccccc2)NC(=O)[C@@H]2CCCN2C(=O)[C@H](Cc2ccccc2)NC(=O)[C@H](CC(C)C)N(C)C(=O)[C@@H]2CCCN2C(=O)[C@@H](CC(C)C)N(C)C1=O has PAMPA 6.8 × 10^-6 cm/s.
CCCN1CC(=O)N[C@@H](CC(C)C)C(=O)N(C)[C@@H](CC(C)C)C(=O)N2CCC[C@@H]2C(=O)N(Cc2ccccc2)CC(=O)N[C@@H](Cc2ccccc2)C(=O)N2CCC[C@H]2C1=O has PAMPA 3.2 × 10^-6 cm/s.
CC(C)C[C@@H]1C(=O)N[C@@H](Cc2ccccc2)C(=O)N2CCC[C@@H]2C(=O)N(C)[C@@H](C)C(=O)N[C@H](CC(C)C)C(=O)N(C)[C@@H](CC(C)C)C(=O)N2CCC[C@H]2C(=O)N1C has PAMPA 8.5 × 10^-6 cm/s.
CC(C)C[C@@H]1NC(=O)C[C@H](Cc2ccccc2)NC(=O)[C@@H]2CCCN2C(=O)[C@H](Cc2ccccc2)NC(=O)[C@@H](CC(C)C)N(C)C(=O)[C@H]2CCCN2C(=O)[C@@H](CC(C)C)N(C)C1=O has PAMPA 3.4 × 10^-6 cm/s.

Source: CycPeptMPDB (Li et al. 2023), which took these values from Townsend et al. 2020, doi:10.26434/chemrxiv.13335941.v1.